What all share (experiment): SPR
In general terms: In SPR one partner is held on a chip, and binding of the other changes the refractive index at the surface.

The target in assay [1] is DAALT peptide.
In assay [2] the target is LAALS peptide.
Assay [3] concerns the target TAALS peptide.
The target of assay [4] is YAALQ peptide.

In general, Kd refers to the constant that tells how readily two partners part at equilibrium. Lower therefore signals a tighter complex. CDK2 (from UniProt P24941): the Kd in assay [1] is 0.47 µM; in assay [2] it was 8 µM; in assay [3] it was 1.4 µM; in assay [4], 98 µM.

These data come from paper PMC4188581, “Break CDK2/Cyclin E1 Interface Allosterically with Small Peptides” (PLoS ONE, 2014).
